The entries are a selection whose mix differs from that of the whole data set. Some results for these compounds are left out of this collection, so the calls shown say nothing about other tests. The source made the active and inactive calls. No stated cut-off is given here; in the data, active means normalized absorbance mostly below about 85% (no sharp cut-off); inactive means mostly above about 86%.

For one compound, normalized absorbance results are on record in PubChem BioAssay AID493162 (ICCB-Longwood Screening Facility, Harvard Medical School, 2011).

The assay relates to Vaccinia virus DNA polymerase (E9) processive complex. Nature of the assay: vaccinia E9 polymerase processive synthesis inhibitors, primary screen, biochemical, absorbance (AID 493162). Conditions: in vitro processive DNA synthesis, absorbance read-out; active compounds read low; concentration not given here.
Take `O=C(OC1CN2CCC1CC2)C(CO)(c1ccccc1)c1ccccc1` (stereo unspecified): the normalized absorbance was inactive: 94.9%.
